Results: ChEMBL document CHEMBL1201862, “PubChem BioAssay data set” (2004)
One block for each compound: values may come before it. Activity calls are given as the source filed them.

By UniProt entry, the sequences of proteins in these tests, tags left out. Where a name states a change or a piece, a line headed by the entry shows the natural chain unless it says otherwise.
UniProt Q9HC29, whole entry: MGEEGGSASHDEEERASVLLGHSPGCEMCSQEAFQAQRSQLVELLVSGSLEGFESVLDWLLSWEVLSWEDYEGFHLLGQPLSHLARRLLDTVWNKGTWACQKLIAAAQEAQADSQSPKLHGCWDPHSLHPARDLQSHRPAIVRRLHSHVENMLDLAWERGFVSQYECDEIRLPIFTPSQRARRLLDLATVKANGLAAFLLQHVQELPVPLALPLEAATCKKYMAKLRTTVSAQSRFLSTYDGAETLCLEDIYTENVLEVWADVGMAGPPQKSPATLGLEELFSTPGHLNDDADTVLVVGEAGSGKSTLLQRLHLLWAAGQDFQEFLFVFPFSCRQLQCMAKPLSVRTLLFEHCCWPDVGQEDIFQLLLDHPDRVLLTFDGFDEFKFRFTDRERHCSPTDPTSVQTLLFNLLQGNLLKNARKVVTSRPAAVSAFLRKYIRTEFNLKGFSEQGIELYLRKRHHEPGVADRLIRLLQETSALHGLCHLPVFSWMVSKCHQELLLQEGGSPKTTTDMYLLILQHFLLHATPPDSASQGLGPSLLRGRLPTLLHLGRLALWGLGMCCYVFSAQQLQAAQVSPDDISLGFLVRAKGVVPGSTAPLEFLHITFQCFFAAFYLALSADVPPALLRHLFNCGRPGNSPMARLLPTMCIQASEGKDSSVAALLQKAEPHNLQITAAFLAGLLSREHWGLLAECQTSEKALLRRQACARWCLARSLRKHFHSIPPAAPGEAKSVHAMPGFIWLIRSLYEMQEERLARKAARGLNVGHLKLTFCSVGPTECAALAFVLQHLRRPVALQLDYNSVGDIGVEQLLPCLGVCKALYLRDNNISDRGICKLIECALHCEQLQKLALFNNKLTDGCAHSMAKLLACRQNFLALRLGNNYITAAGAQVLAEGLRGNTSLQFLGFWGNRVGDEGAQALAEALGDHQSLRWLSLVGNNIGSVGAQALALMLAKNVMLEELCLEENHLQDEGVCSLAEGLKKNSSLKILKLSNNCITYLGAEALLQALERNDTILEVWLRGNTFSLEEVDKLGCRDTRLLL
UniProt P98170, whole entry: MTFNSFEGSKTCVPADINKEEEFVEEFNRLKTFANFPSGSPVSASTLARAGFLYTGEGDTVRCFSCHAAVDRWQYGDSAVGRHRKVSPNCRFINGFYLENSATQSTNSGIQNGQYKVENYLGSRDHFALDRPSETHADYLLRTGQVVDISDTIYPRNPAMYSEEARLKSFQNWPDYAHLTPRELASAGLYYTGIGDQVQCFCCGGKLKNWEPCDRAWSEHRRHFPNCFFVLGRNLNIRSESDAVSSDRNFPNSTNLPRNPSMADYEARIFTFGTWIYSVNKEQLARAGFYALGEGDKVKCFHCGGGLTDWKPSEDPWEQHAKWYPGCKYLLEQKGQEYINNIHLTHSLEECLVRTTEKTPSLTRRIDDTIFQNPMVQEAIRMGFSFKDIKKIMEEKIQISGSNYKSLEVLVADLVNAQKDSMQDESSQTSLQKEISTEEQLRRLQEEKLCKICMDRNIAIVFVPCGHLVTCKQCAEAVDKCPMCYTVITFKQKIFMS
UniProt P41145: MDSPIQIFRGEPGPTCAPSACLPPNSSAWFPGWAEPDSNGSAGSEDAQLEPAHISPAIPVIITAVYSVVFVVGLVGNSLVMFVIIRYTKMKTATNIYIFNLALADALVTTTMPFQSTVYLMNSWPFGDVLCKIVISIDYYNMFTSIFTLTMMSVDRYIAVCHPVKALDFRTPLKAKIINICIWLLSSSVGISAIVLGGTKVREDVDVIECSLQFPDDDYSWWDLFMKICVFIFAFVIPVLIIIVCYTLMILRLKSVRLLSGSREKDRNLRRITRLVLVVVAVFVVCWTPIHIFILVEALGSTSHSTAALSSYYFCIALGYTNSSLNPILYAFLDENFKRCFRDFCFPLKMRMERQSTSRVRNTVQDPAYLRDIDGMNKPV

Assays:
[1] = target: Nucleotide-binding oligomerization domain-containing protein 2 (Homo sapiens, UniProt Q9HC29); experiment: PubChem AID 2334; assay type: functional
Prothrombin = Prothrombin (Homo sapiens, UniProt P00734); experiment: Thrombin 1536 HTS Dose Response Confirmation. [Related pubchem assays: 1046 (Thrombin 1536 HTS; hits were confirmed in this assay)]; assay type: functional
[2] = target: T1, E3 ubiquitin-protein ligase XIAP (Homo sapiens, UniProt P98170); experiment: SAR analysis of Antagonists of IAP-family anti-apoptotic proteins. [Related pubchem assays (depositor defined):AID1018, AID1449, AID1513, AID1514, AID1638]
[3] = target: T1, E3 ubiquitin-protein ligase XIAP; experiment: SAR analysis of Antagonists of XIAP-Bir3 domain of IAP-family anti-apoptotic proteins. [Related pubchem assays (depositor defined):AID1018, AID1449, AID1513, AID1514, AID1638]
[4] = target: Kappa-type opioid receptor (Homo sapiens, UniProt P41145); experiment: SAR analysis of Antagonists of the Kappa Opioid Receptor (KOR) using an Image-Based Assay - Set 4. [Related pubchem assays (depositor defined):AID1777, AID1785]; assay type: functional

Structure (SMILES): Nc1nc2ccccc2n1Cc1ccc(Cl)cc1
IC50 [1]: active: 11.7 µM

IC50 (Prothrombin): active: 0.00236 µM
Structure (SMILES): CCC(=O)n1nc(-c2cccnc2)nc1NCc1cccs1

IC50 [2]: active: 4.2 µM
IC50 [3]: active: 0.46 µM
Structure (SMILES): CN[C@@H](C)C(=O)N[C@H](C(=O)N1CCC[C@H]1C(=O)NC1CCCc2ccccc21)C(C)C (stereo not given in full)

IC50 [4]: active: 0.00319 µM
Structure (SMILES): COc1ccc(N2CCN(CCCNC(=O)Cn3c(=O)c4cccn4c4c(C)ccnc43)CC2)cc1
